Sequences of proteins named here, by UniProt entry; tags and fusion partners are left off. A change or cut given only in a name is not applied to a line headed by its entry.
UniProt P30872: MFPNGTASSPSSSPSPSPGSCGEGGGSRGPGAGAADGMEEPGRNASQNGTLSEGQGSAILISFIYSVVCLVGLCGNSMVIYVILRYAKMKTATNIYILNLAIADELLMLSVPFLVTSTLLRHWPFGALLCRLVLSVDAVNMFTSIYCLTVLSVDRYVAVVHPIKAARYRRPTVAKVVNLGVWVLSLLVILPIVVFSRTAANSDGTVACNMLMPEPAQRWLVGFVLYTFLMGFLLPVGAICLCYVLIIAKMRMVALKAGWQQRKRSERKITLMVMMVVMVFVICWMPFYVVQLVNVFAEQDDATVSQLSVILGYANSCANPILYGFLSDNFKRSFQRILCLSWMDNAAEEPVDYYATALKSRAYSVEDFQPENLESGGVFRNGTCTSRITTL
UniProt P30874: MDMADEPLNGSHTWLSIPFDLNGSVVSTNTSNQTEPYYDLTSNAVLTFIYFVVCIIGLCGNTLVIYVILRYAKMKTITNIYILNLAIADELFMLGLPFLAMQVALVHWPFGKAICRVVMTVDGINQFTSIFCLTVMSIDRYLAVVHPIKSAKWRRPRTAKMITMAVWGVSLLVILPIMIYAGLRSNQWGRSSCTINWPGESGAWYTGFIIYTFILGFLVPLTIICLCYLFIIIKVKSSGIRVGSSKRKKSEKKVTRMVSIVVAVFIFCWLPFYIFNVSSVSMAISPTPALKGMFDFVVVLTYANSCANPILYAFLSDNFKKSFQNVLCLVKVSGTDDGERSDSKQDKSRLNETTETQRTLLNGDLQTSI
UniProt P31391: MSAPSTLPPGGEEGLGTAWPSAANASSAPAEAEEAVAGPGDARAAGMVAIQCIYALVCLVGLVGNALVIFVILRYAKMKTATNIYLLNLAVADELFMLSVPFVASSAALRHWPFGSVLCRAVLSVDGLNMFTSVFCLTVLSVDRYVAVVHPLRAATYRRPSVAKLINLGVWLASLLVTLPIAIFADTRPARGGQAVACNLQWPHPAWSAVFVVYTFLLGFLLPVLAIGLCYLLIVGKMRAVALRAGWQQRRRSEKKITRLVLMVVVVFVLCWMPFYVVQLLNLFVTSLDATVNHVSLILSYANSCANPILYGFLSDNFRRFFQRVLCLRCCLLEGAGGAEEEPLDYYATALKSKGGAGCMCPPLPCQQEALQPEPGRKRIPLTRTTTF

According to US6579967B1, “Receptor-selective somatostatin analogs” (The Salk Institute for Biological Studies, priority 1999, dated 2003):

Experiments:
Assay type in all cases: binding
Details in all cases: 125I-labelled Tyr2 analog tested as radioligand on cloned receptor
[1] = molecular target: T1, human SSTR1 (Homo sapiens, UniProt P30872); assay: Displacement of 125I-[Leu8,D-Trp22,Tyr25]-somatostatin-28 from cloned SSTR1 (receptor autoradiography on membrane pellets)
T1 construct: expressed in transfected cells; host or cells: CHO-K1 cells and CCL39 cells
Experimental: (§1) Generally, recombinant cells expressing the receptor are washed and homogenized to prepare a crude protein homogenate in a suitable buffer, as known in the art. In a typical assay, an amount of protein from the cell homogenate is placed into a small volume of an appropriate assay buffer at an appropriate pH. Candidate substances, such as potential SRIF agonists and antagonists, are added to the admixture in convenient concentrations, and the interaction between the candidate substance and the receptor polypeptide is monitored.
(§2) Receptor binding assays are performed on cloned SRIF receptors as generally set forth in Raynor et al. supra. Using such assays, one can generate KD values which are indicative of the concentration of a ligand necessary to occupy one-half (50%) of the binding sites on a selected amount of a receptor or the like, or alternatively, competitive assays can generate IC50 values which are indicative of the concentration of a competitive ligand necessary to displace a saturation concentration of a target ligand being measured from 50% of binding sites. […]
(§3) Receptor autoradiography is performed on 20 μm thick cryostat sections of the membrane pellets, mounted on microscope slides, and then stored at −20° C. […] IC50 values are calculated after quantification of the data using a computer-assisted image processing system as known in this art. […]

[2] = molecular target: T2, human SSTR2 (Homo sapiens, UniProt P30874); assay: Displacement of 125I-[Leu8,D-Trp22,Tyr25]-somatostatin-28 from cloned SSTR2 (receptor autoradiography on membrane pellets)
T2 construct: expressed in transfected cells; host or cells: CHO-K1 cells and CCL39 cells
Experimental: as §1, §2, §3

[3] = molecular target: T3, human SSTR4 (Homo sapiens, UniProt P31391); assay: Displacement of 125I-[Leu8,D-Trp22,Tyr25]-somatostatin-28 from cloned SSTR4 (receptor autoradiography on membrane pellets)
T3 construct: expressed in transfected cells; host or cells: CHO-K1 cells and CCL39 cells
Experimental: as §1, §2, §3

(cyclo)H-Tyr-Cys-Phe-Phe-D-Agl(Me,2Np)-Lys-Thr-Phe-Cys-OH [Peptide No. 4]
No specific binding: binding of the radioiodinated analog to SSTR1 [1] | binding of the radioiodinated analog to SSTR2 [2] | binding of the radioiodinated analog to SSTR4 [3]
